How the values were obtained:
[1] = biological target: Nucleolysin TIA-1 (endogenous mouse TIA1) (mouse) (UniProt P52912); assay: TIA1 IP-MS, WT1 cortex
[2] = biological target: Nucleolysin TIA-1 (endogenous mouse TIA1) (mouse) (UniProt P52912); assay: TIA1 IP-MS, WT2 cortex
[3] = biological target: Nucleolysin TIA-1 (endogenous mouse TIA1) (mouse) (UniProt P52912); assay: TIA1 IP-MS, WT3 cortex
[4] = biological target: Nucleolysin TIA-1 (endogenous mouse TIA1) (mouse) (UniProt P52912); assay: TIA1 IP-MS, tau KO 1 cortex
[5] = biological target: Nucleolysin TIA-1 (endogenous mouse TIA1) (mouse) (UniProt P52912); assay: TIA1 IP-MS, tau KO 2 cortex
[6] = biological target: Nucleolysin TIA-1 (endogenous mouse TIA1) (mouse) (UniProt P52912); assay: TIA1 IP-MS, tau KO 3 cortex

total ion current (normalized to TIA1 = 1000) [1] | total ion current (normalized to TIA1 = 1000) [2] | total ion current (normalized to TIA1 = 1000) [3] | total ion current (normalized to TIA1 = 1000) [4] | total ion current (normalized to TIA1 = 1000) [5] | total ion current (normalized to TIA1 = 1000) [6] | Substance
4.38 | 0 | 0 | 67.1 | 0 | 0 | 40S ribosomal protein S3 (from UniProt P62908 2-243)
0 | 275 | 41.4 | 0 | 144 | 0 | Isoform 2 of cAMP-dependent protein kinase catalytic subunit alpha (from UniProt P05132 2-343)
35.8 | 46.9 | 110 | 0 | 0 | 0 | 60S ribosomal protein L7 (from UniProt P14148 1-270)
19 | 554 | 108 | 23.4 | 85.1 | 0 | Small nuclear ribonucleoprotein-associated protein B (from UniProt P27048 1-231)
0 | 138 | 0 | 0 | 66.6 | 0 | Fascin (from UniProt Q61553 2-493)
5.82 | 152 | 0 | 2.94 | 0 | 0 | 40S ribosomal protein S4, X isoform (from UniProt P62702 2-263)
0 | 283 | 368 | 0 | 180 | 0 | Polyubiquitin-B (from UniProt P0CG49 1-76)
0 | 132 | 34.9 | 0 | 162 | 0 | Glucose-6-phosphate isomerase (from UniProt P06745 2-558)
10.3 | 0 | 0 | 20.1 | 0 | 0 | 60S ribosomal protein L13a (from UniProt P19253 2-203)
0 | 365 | 221 | 0 | 161 | 0 | GTP-binding nuclear protein Ran (from UniProt P62827 2-216)
4.44 | 71.6 | 0 | 19.8 | 0 | 525 | 60S ribosomal protein L13 (from UniProt P47963 1-211)
0 | 172 | 0 | 0 | 31.1 | 0 | Isoform 1 of Voltage-dependent L-type calcium channel subunit beta-4 (from UniProt Q8R0S4 1-486)
12.7 | 0 | 0 | 0 | 0 | 0 | 60S ribosomal protein L6 (from UniProt P47911 1-296)
0 | 385 | 41.4 | 0 | 189 | 0 | Isoform 2 of cAMP-dependent protein kinase catalytic subunit beta (from UniProt P68181 1-338)
3.24 | 0 | 0 | 8.16 | 0 | 0 | Ribosomal protein (Rpl10a) (from UniProt P53026 2-217)
